Values of other authors as cited in patent US20150307508A1, “Application of an alkaloid derived from a Chinese herbal for treatment of cancer by inhibiting cholesterol synthesis and fatty acid oxidation” (Macau University of Science and Technology, priority 2014, published 2015).

Tests used:
A549 (EGFR^Wild type) = settings: cited from earlier work
HCC827 = settings: cited from earlier work

In the case of `COc1cc2ncnc(Nc3ccc(F)c(Cl)c3)c2cc1OCCCN1CCOCC1` [Gefitinib], the “Gefitinib Sensitivity” value (A549 (EGFR^Wild type)) is given as “Moderately sensitive” and the “Gefitinib Sensitivity” value (HCC827) is given as “Sensitive”.
